# Compound activity: PubChem BioAssay, National Center for Advancing Translational Sciences (NCATS)
# DT40 TDP1 CPT: DT40-hTDP1 cell growth loss with CPT; chicken DT40 Tdp1-/-;hTDP1 cells + 20 nM CPT, ATP luminescence, 48 h; Potency, µM (top dose mostly 46.2 µM), for the others: at the highest dose activity change, negative = growth inhibition, most hits filed as inhibitors; actives 12% (n = 420,000); also: potency is read from the fitted curve at half-maximal effect; % is scaled to controls: 0 for no effect and ±100 for the full control effect; nearly all actives have a fitted effect of over 55% in size
#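 Chicken DT40 Tdp1-/- cells stably complemented with human TDP1 were seeded at 400 cells/well in medium containing 20 nM camptothecin, exposed to pin-transferred compounds, and grown at 37 °C for at least 48 hr. Viability was read as ATP luminescence.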
# TDP1 block: inhibitors of human tyrosyl-DNA phosphodiesterase TDP1; Q9NUW8; recombinant TDP1, AlphaScreen DNA substrate cleavage; Potency, µM (series often up to 130 µM), for inactives: at the highest dose activity change, negative = inhibition, usual class: inhibitors; actives 0.28% (n = 350,000); AID 485290; also: potency is read from the fitted curve at half-maximal effect; % is scaled to controls: 0 for no effect and ±100 for the full control effect; nearly all actives have a fitted effect of over 40% in size
#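 Signal: AlphaScreen proximity between streptavidin donor and anti-FITC acceptor beads on intact substrate. Reaction: Tdp1 1 nM, substrate 15 nM final, 5 min RT after 15 min compound preincubation.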
# miR-21 reporter: miR-21 reporter, rising signal; HeLa miR-21 FLuc reporter, luciferase, 48 h; Potency, µM (doses to about 38.3 µM), for inactives: at the highest dose reporter change, positive = more light; 340,000 tested, under 10 active; AID 2288; active = well fitted rising curve with a large enough effect; inconclusive = small, poorly fitted or top-dose-only effect; inactive = no such curve, though single readings can be large or run the other way;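 further: % of control where 0% means no effect; miR-21 action dims this reporter so a rising signal means less miR-21 action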
#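 Compounds were titrated across several concentrations (up to approximately 40 uM) and incubated 48 hours with HeLa miR-21-FLuc reporter cells (miR-21 target sequence downstream of FLuc, endogenous miR-21). Readout was firefly luciferase luminescence after lytic detection reagent.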
# uPA generation: inhibitors of cell surface uPA generation; AID 540303; Potency, µM (highest dose often 38.3 µM), for inactives: top-dose activity change, negative = inhibition, most hits filed as inhibitors; actives 0.31% (n = 330,000); cell surface uPA generation assay, qHTS; active = well fitted inhibition curve with a large enough effect; inconclusive = small, poorly fitted or top-dose-only effect; inactive = no such curve, though single readings can be large or run the other way; tested in mouse RAW 264.7 cells; also: potency is read from the fitted curve at half-maximal effect; % is scaled to controls: 0 for no effect and ±100 for the full control effect; nearly all actives have a fitted effect of over 55% in size
# DT40 TDP1 no CPT: qHTS for Inhibitors of human tyrosyl-DNA phosphodiesterase 1 (TDP1): qHTS in cells in absence of CPT. AID 686978, 2013. Potency, µM (top dose mostly 46.2 µM), inactives show at the highest dose activity change, negative = growth inhibition, usual class: inhibitors. actives 15% (n = 420,000). DT40 Tdp1-/- hTDP1 cells, no CPT, ATP luminescence, 48 h; also: potency is read from the fitted curve at half-maximal effect; % is scaled to controls: 0 for no effect and ±100 for the full control effect; nearly all actives have a fitted effect of over 55% in size
#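 Cells were dispensed at 400 per well, compounds added by pin tool, plates incubated ≥48 hr at 37 °C, then CellTiter-Glo added for 30 min at room temperature before luminescence reading. Line: DT40 Tdp1-/- complemented with hTDP1; camptothecin omitted.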
# * hit, by the source's call; ? = inconclusive; nt = no result; [ ] = remark or other dose. Most compounds without a hit are left out; they make up all but 16% or so of the library. Unless noted, calls follow the shape of the dose curve; as a rule, active = well fitted curve in the direction sought with a large enough effect; inconclusive = small, poorly fitted or top-dose-only effect, or another doubt; inactive = no such curve, though single readings can be large; an effect the other way counts as inactive or inconclusive.
# Letters – A = DT40 TDP1 CPT; B = TDP1 block; C = miR-21 reporter; D = uPA generation; E = DT40 TDP1 no CPT
1: COc1ccccc1CNC(=O)Cn1c(=O)oc2cc(S(=O)(=O)N3CCC(C)CC3)ccc21
  A: 5.2µM* | B: 4% | C: 26% | D: nt | E: 2.9µM*

2: COc1ccccc1CNC(=O)Cn1c(=O)ccc2cc(S(=O)(=O)N3CCCC3)ccc21
  A: -27% | B: 3% | C: 1% | D: nt | E: -29%

3: COc1ccccc1CNC(=O)Cn1c(=O)ccc2cc(S(=O)(=O)N3CCC(C)CC3)ccc21
  A: 23µM* | B: 2% | C: 15% | D: nt | E: ?

4: CCOc1ccccc1NC(=O)Cn1c(=O)ccc2cc(S(=O)(=O)N3CCC(C)CC3)ccc21
  A: ? | B: -1% | C: 5% | D: nt | E: 26µM*

5: CC(C)(C)SC(=O)CC1NS(=O)(=O)OC2CCCCC12 (stereo not drawn)
  A: ? | B: nt | C: -4% | D: -6% | E: ?

6: O=C(CSc1nnc(COc2ccc(Cl)cc2)o1)N(c1ccccc1)C1CCS(=O)(=O)C1 (stereo not drawn)
  A: ? | B: nt | C: nt | D: nt | E: 13µM*

7: CC1CCCN(C(=O)CSc2nc3ccccc3o2)C1 (stereo not drawn)
  A: -10% | B: 4% | C: -51% | D: -2% | E: -7%

8: COc1ccc(-c2nnc(SCC(=O)OC3CCCCC3)o2)cc1OC
  A: -9% | B: 4% | C: 0% | D: -6% | E: -2%

9: COc1ccc(-c2nnc(SCC(=O)N(C)C3CCCCC3)o2)cc1OC
  A: 16µM* | B: 6% | C: -6% | D: nt | E: 12µM*

10: CN(C(=O)CSc1nc2ccccc2o1)C1CCCCC1
  A: ? | B: 0% | C: nt | D: 10% | E: 29µM*

11: Cc1cccc(OCc2nnc(SCC(=O)N(C)C3CCCCC3)o2)c1
  A: 18µM* | B: -3% | C: nt | D: -3% | E: ?

12: CCOc1ccc(N(CC(=O)NC2CCCC2)C(=O)CSc2nnc(COc3ccccc3)o2)cc1
  A: 21µM* | B: 1% | C: 0% | D: -8% | E: 21µM*

13: CCC(=O)NCCCCNC(=O)CC
  A: 19% | B: 1% | C: 0% | D: 0% | E: -14%

14: CC1CN(c2nc(N(C)c3ccccc3)nc(N)c2[N+](=O)[O-])CC(C)O1 (stereo not drawn)
  A: -20% | B: nt | C: 0% | D: -10% | E: ?

15: CC1CC(C)CN(c2nc(N(C)c3ccccc3)nc(N)c2[N+](=O)[O-])C1 (stereo not drawn)
  A: ? | B: nt | C: 8% | D: -9% | E: 13µM*

16: CCOC(=O)C1C(=O)C(C(=O)OCC)C(c2cccnc2)NC1c1cccnc1 (stereo not drawn)
  A: -14% | B: 1% | C: -1% | D: 3% | E: -12%

17: CCOc1ccc(CNC(=O)c2ccc3nc(C(C)C)oc3c2)cc1
  A: -4% | B: 2% | C: -5% | D: nt | E: -15%

18: Cc1ccc2nc3sc(C(=O)Nc4ccc(F)cc4)cc3cc2c1
  A: ? | B: 10µM* | C: -16% | D: nt | E: ?

19: COc1cc(OC)c(NC(=O)c2ccc3nc(C(C)C)oc3c2)cc1Cl
  A: 9.2µM* | B: 5% | C: -15% | D: nt | E: 18µM*

20: CCOc1ccc(CCNC(=O)c2cc3cc4cc(OC)ccc4nc3s2)cc1OCC
  A: ? | B: 0% | C: -17% | D: nt | E: ?

21: CCOc1cc(CNC(=O)c2ccc3nc(C(C)C)oc3c2)cc(OCC)c1OCC
  A: 23µM* | B: 4% | C: -4% | D: nt | E: 18µM*

22: CCOc1ccccc1NC(=O)c1cc2cc3cc(C)ccc3nc2s1
  A: -29% | B: 3% | C: -11% | D: nt | E: -12%

23: COc1ccc2nc3sc(C(=O)Nc4cc(Cl)c(OC)cc4OC)cc3cc2c1
  A: ? | B: 2% | C: -4% | D: nt | E: 5.8µM*

24: O=C(CN1CCN(CC(=O)Nc2ccccc2C(F)(F)F)CC1)Nc1ccccc1F
  A: ? | B: 0% | C: 0% | D: 1% | E: ?

25: Cc1cc(C)c(NC(=O)c2ccc3nc(C(C)C)oc3c2)c(C)c1
  A: ? | B: 1% | C: -1% | D: nt | E: ?

# Rewritten as labelled records: entries from further up.
18. Cc1ccc2nc3sc(C(=O)Nc4ccc(F)cc4)cc3cc2c1
  DT40 TDP1 CPT: ?	TDP1 block: 10µM*	miR-21 reporter: -16%	uPA generation: nt	DT40 TDP1 no CPT: ?
19. COc1cc(OC)c(NC(=O)c2ccc3nc(C(C)C)oc3c2)cc1Cl
  DT40 TDP1 CPT: 9.2µM*	TDP1 block: 5%	miR-21 reporter: -15%	uPA generation: nt	DT40 TDP1 no CPT: 18µM*
20. CCOc1ccc(CCNC(=O)c2cc3cc4cc(OC)ccc4nc3s2)cc1OCC
  DT40 TDP1 CPT: ?	TDP1 block: 0%	miR-21 reporter: -17%	uPA generation: nt	DT40 TDP1 no CPT: ?

# The list goes on.
# Letters – A = DT40 TDP1 CPT; B = TDP1 block; C = miR-21 reporter; D = uPA generation; E = DT40 TDP1 no CPT
26: CCc1ccc(NC(=O)c2ccc3nc(C(C)C)oc3c2)cc1
  A: ? | B: 4% | C: -28% | D: nt | E: 18µM*

27: O=[N+]([O-])c1cccnc1N1CCC(c2cc(-c3ccc(Cl)cc3)n[nH]2)CC1
  A: 21µM* | B: 11% | C: 12% | D: 0% | E: 21µM*

28: CCOC(=O)CN1CCC(c2cc(-c3ccc(Cl)cc3)n[nH]2)CC1
  A: ? | B: nt | C: 0% | D: -22% | E: ?

29: CCn1c(CC(=O)Nc2ccc(C)cc2)nnc1SCC(=O)NCCc1ccccc1
  A: ? | B: -5% | C: -2% | D: nt | E: ?

30: Cc1ccccc1-c1cc2nc(Oc3cccc4ccccc34)n(C)c(=O)c2s1
  A: 0% | B: nt | C: nt | D: nt | E: 2%

31: C=CCNc1nc2cc(-c3ccccc3C)sc2c(=O)n1C
  A: 15µM* | B: nt | C: nt | D: nt | E: 10µM*

32: Cc1ccccc1-c1cc2nc(NCc3ccccc3F)n(C)c(=O)c2s1
  A: 7.3µM* | B: nt | C: nt | D: nt | E: 6.5µM*

33: Cc1ccccc1-c1cc2nc(NCc3ccc4occc4c3)n(C)c(=O)c2s1
  A: 18µM* | B: nt | C: nt | D: nt | E: ?

34: Cc1ccccc1-c1cc2nc(Oc3ccc4c(c3)OCO4)n(C)c(=O)c2s1
  A: 12µM* | B: nt | C: nt | D: nt | E: ?

35: COc1ccc(/C=C/C(=O)Nc2ccc(-c3nnc4n3CCCCC4)cc2)c(OC)c1
  A: 9.2µM* | B: 2% | C: -11% | D: -7% | E: 2.3µM*

36: Cc1cc(C)n(-c2ccc(Cl)c(C(=O)Nc3ccc(-c4nnc5n4CCCCC5)cc3)n2)n1
  A: 2.1µM* | B: 6% | C: -2% | D: 3% | E: 1.8µM*

37: COc1ccc(Cl)cc1C(=O)Nc1ccc(-c2nnc3n2CCCCC3)cc1
  A: ? | B: 0% | C: -2% | D: nt | E: ?

38: O=C(OCCNC(=O)c1ccc2ccccc2n1)c1ccc(F)cc1
  A: ? | B: -2% | C: -12% | D: nt | E: -15%

39: CCOc1cc(C(=O)Nc2ccccc2N2CCOCC2)ccc1OCC(=O)N1CCCCC1
  A: ? | B: 0% | C: 4% | D: -8% | E: ?

40: COc1ccc(NC(=O)c2c(NC(=O)C(F)(F)F)sc3c2CCCCC3)cc1
  A: ? | B: 4%[12.3 µM] | C: ? | D: nt | E: 18µM*

41: COc1ccc(CC(=O)Nc2sc3c(c2C(=O)Nc2ccc(C)cc2)CCCCC3)cc1
  A: ? | B: -5%[12.3 µM] | C: -26% | D: nt | E: 16µM*

42: Cc1ccc(NC(=O)c2c(NC(=O)Cc3ccccc3)sc3c2CCC3)cc1
  A: -1% | B: -8%[12.3 µM] | C: -3% | D: nt | E: ?

43: CC1CCc2c(sc(NC(=O)Cc3ccccc3)c2C(=O)Nc2ccc(Cl)cc2)C1 (stereo not drawn)
  A: 15µM* | B: 1%[12.3 µM] | C: -2% | D: nt | E: ?

44: Cc1ccc(NC(=O)c2c(NC(=O)Cc3ccccc3)sc3c2CCCC3)cc1
  A: ? | B: -1%[12.3 µM] | C: -6% | D: nt | E: ?

45: O=C(Cc1ccccc1)Nc1sc2c(c1C(=O)Nc1ccc(Br)cc1)CCCC2
  A: 12µM* | B: 5%[12.3 µM] | C: -11% | D: nt | E: 21µM*

46: COc1ccc(NC(=O)c2c(NC(=O)Cc3ccccc3)sc3c2CCCC3)cc1
  A: -10% | B: nt | C: -6% | D: nt | E: -21%

47: CC1CC(C)CN(CC(C)(C)NS(=O)(=O)c2ccccc2)C1 (stereo not drawn)
  A: -16% | B: -1% | C: -8% | D: 12% | E: -27%

48: O=C(COC(=O)CCC(=O)c1cccs1)Nc1cc(S(=O)(=O)N2CCOCC2)ccc1Cl
  A: 1% | B: -1% | C: -4% | D: -2% | E: 11%
